Source: ChEMBL document CHEMBL1127053, “3,4-Dimethyl-4-(3-hydroxyphenyl)piperidines: opioid antagonists with potent anorectant activity” (J Med Chem, 1993)

The chains behind the UniProt entries cited, without tags or fusion partners. Where a name states a change or a piece, a line headed by the entry shows the natural chain unless it says otherwise.
UniProt P41144: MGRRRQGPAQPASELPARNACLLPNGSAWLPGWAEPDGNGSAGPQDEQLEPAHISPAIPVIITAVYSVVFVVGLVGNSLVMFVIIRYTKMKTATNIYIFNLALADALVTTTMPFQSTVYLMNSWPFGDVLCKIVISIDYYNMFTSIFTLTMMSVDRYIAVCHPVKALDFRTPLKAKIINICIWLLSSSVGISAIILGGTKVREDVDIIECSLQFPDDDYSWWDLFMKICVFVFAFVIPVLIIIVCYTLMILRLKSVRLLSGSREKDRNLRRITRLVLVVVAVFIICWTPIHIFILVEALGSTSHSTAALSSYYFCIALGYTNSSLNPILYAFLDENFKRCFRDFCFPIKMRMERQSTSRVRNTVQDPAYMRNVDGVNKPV

Target: Kappa-type opioid receptor (Cavia porcellus, UniProt P41144)
Experiment: Binding affinity towards kappa opioid receptor by displacement of [3H]EKC in guinea pig cortical tissue
How it was run: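 Radioligand displacement. Kappa: [3H]EKC, guinea pig cortex, with fentanyl and DADL added to block mu/delta binding. Delta: [3H]DADL, rat brain homogenate.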

Compound: CCCCCCN1CC[C@](C)(c2cccc(O)c2)[C@H](C)C1
- Ki: 5.79 nM

Compound: CCCCCCN1CC[C@@](C)(c2cccc(O)c2)[C@@H](C)C1 (stereo in doubt; 37)
- Ki: 5.2 nM
